Data: patent US12427179B2, “Compositions and methods for diagnosis and treatment of neurodegenerative diseases” (EPITRACKER, INC., priority 2019, dated 2025)

Tested on: LPS: Venular endothelial cells, peripheral blood mononuclear cells (TLR4 ligand)
Experiment: BioMAP LPS system
Assay type: cell-based, human
Details: first system (LPS); 20 μM; 24 hours
Experimental: Anti-inflammatory phenotypic profiling was conducted across 12 human primary cell-based systems as part of DiscoverX's BioMAP Diversity Plus program. These systems are designed to model complex human tissue and disease biology of the vasculature, skin, lung, and inflammatory tissues. Quantitative measurements of biomarker activities across this broad panel were used to assess each biochemical's anti-inflammatory activity at four concentrations ([…] and 2.2, 6.7 and 20 μM). […] Protein-based biomarkers from activated cell systems were measured and compared with controls. […]
The Diversity PLUS panel allows test agent characterization in an unbiased way across a broad set of systems modeling various human disease states. […] Quantitative measurements of 148 biomarker activities across this broad panel, along with comparative analysis of biological activities from known bioactive agents, were used to predict and compare the efficacy and function of each selected compound at selected concentrations (6.7 and/or 20 μM). […]
Each test agent generates a signature BioMAP profile that is created from the changes in protein biomarker readouts within individual system environments. Biomarker readouts (7-17 per system) are selected for therapeutic and biological relevance, are predictive for disease outcomes or specific drug effects and are validated using agents with known mechanism of action (MoA). […]

## O=C(O)c1cc(O)c2cccc(O)c2n1 [xanthurenate]
  TNF-α, log (10)-transformed ratio for drug-treated samples over vehicle controls: −0.19 log (10)
